{
  "source": "patent US6399568B1",
  "about": "“Cyclic tetrapeptide derivatives and medicinal use thereof” (Japan Energy Corporation, priority 1997, dated 2002)",
  "biological_target": "Mouse histone deacetylase",
  "assay_type": "biochemical",
  "details": "enzyme from FM3A cells; [3H]acetyl histone; 37° C. 10 minutes",
  "description": "In an enzyme system using a radio-labelled acetylated histone as a substrate, histone deacetylase enzyme inhibiting activity was evaluated. The basic conditions were in accordance with the method of Yoshida et al. (J. Biol. Chem., 265, 17174-17179, 1990).\nMouse histone deacetylase to be used was partially purified from FM3A cells. Cells were suspended in HDA buffer (15 mM potassium phosphate, 5% glycerol, 0.2 mM EDTA, pH 7.5), homogenized and centrifuged (35000×g, 10 min) to collect the nuclei which in turn were homogenized in the same buffer containing 1 M (NH4)2SO4. After ultrasonic disruption and centrifugation, the concentration of (NH4)2SO4 in the supernatant was increased to 3.5 M to precipitate deacetylase enzyme proteins. This precipitate was redissolved in HDA buffer, dialyzed against HDA buffer, applied to DEAE-cellulose column and eluted in NaCl gradient. Active fractions were used as a histone deacetylase enzyme solution.\nAs a substrate, [^3H]acetyl histone was used. […]\nAn assay was performed by adding a compound to be tested at a given concentration while using a no-addition control group, and by incubating the substrate solution and the enzyme solution at 37° C. for 10 minutes (reaction volume, 100 μl). The enzyme reaction was stopped by adding 10 μl of concentrated hydrochloric acid and the excised [^3H]acetate was extracted with ethyl acetate for radioactivity measurement. […]",
  "data": [
    {"compound": "CC(/C=C/C(=O)NO)=C\\[C@@H](C)C(=O)c1ccc(N(C)C)cc1", "note": "[Trichostatin A, trichostatin A, reference compound]", "values": [
      {"measurement": "IC50", "result": 1.44, "unit": "nM"}
    ]}
  ]
}
